Results from patent publication US6737397B1, “Control of cancer growth through the interaction of [MET5]-enkephalin and the zeta receptor” (The Penn State Research Foundation, priority 1996, dated 2004).
Where two headings read alike, the source gives them in different places.

Tests used:
ζ-opioid receptor [1] = molecular target: T1, ζ-opioid receptor (Homo sapiens, UniProt Q9NZT2); experiment: Competition for binding of [3H][Met5]enkephalin (4.0 nM) in nuclear homogenates of HT-29 human colon tumors; design: from tissue; host or cells: HT-29 human colon tumor xenografts grown in athymic nude mice; nuclear (P1) and other subcellular fractions; conditions: for Ki: read-out: KI nM
T1 sequence (Q9NZT2 1-677): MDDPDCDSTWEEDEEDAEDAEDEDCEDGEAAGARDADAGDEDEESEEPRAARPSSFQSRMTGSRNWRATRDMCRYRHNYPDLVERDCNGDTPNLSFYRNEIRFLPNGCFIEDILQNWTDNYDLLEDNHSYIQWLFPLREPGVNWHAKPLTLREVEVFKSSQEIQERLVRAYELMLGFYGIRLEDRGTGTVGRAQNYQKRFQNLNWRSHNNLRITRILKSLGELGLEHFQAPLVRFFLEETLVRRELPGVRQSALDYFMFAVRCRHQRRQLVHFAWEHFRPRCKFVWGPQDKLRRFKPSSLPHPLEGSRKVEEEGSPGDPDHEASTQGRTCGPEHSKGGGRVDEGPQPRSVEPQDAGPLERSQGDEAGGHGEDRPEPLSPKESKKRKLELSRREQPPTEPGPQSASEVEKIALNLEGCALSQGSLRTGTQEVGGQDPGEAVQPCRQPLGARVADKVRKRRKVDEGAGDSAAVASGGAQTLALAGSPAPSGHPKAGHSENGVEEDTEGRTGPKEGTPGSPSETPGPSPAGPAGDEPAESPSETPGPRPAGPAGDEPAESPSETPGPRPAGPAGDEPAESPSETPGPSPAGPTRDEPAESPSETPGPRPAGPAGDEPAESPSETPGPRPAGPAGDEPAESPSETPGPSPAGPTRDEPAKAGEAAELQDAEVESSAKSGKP

ζ opioid receptor = ζ opioid receptor (Homo sapiens, UniProt Q9NZT2)
ζ-opioid receptor [2] = molecular target: T1, ζ-opioid receptor
[3] = molecular target: T2, [Met5]-enkephalin receptor (Homo sapiens, UniProt Q9NZT2); experiment: [3H]-[Met5]-enkephalin binding on HT-29 cells after 48 h exposure to OGF or NTX (receptor regulation); conditions: read-out: Kd of [3H]-[Met5]-enkephalin; HT-29 cells after 48 h of exposure to the treatment
T2 construct: endogenous in cells; host or cells: HT-29 human colon cancer cells, log phase, nuclear pellet (P1)
T2 sequence (Q9NZT2 1-677): T1 sequence (Q9NZT2 1-677)

ζ-opioid receptor [4] = molecular target: T1, ζ-opioid receptor; remark: listed apart in the source
ζ-opioid receptor [5] = molecular target: T1, ζ-opioid receptor; conditions: read-out: binding affinity (Kd); nuclear preparation of cultured HT-29 cells, one-site model

[Leu^5]-enkephalin [[Leu^5]enkephalin] was tested, and the IC50 (ζ-opioid receptor [1]) was 75 ± 5 nM and the Ki (ζ-opioid receptor [1]) was 57.7 ± 3.9 nM.

[Met^5]-enkephalin gave a Kd (ζ opioid receptor; tumors from mice treated with 5 mg/kg OGF three times daily) of 7.1 ± 1.3 nM, an IC50 (ζ-opioid receptor [1]) of 16.5 ± 1.5 nM and a Ki (ζ-opioid receptor [1]) of 12.7 ± 1.2 nM. For the same substance, the Kd (ζ-opioid receptor [2]; read-out: equilibrium dissociation constant Kd, P1 nuclear homogenates of HT-29 tumors, 150 min, 22° C., pH 7.4) was 15.4 nM and the Kd [3] was 1.9 ± 1.1 nM.

[^3H]-[Met^5]-enkephalin gave a Kd (ζ opioid receptor; read-out: binding affinity (Kd), tumor tissue from control animals, one-site model) of 10 ± 1.7 nM, a Kd (ζ-opioid receptor [4]; Patient 1, splenic flexure adenocarcinoma) of 15.7 ± 6.7 nM and a Kd (ζ-opioid receptor [4]; Patient 2, sigmoid adenocarcinoma) of 6.7 ± 0.5 nM. For the same substance, the Kd (ζ-opioid receptor [4]; read-out: equilibrium dissociation constant (Kd), data from both patients averaged) was 11.2 ± 3.6 nM, the Kd (ζ-opioid receptor [5]) was 8.9 nM and the Kd (ζ-opioid receptor [2]; subcellular fractionation, P1 nuclear fraction) was 6.6 ± 0.2 nM.

Work on dynorphin A 1-8 [Dynorphin A-(1-8)] yielded an IC50 (ζ-opioid receptor [1]) of 375 ± 25 nM and a Ki (ζ-opioid receptor [1]) of 289 ± 20 nM.
